In brackets after ≈: the same amount, converted by molar mass.
Settings: experimental values compiled from the literature

O=[N+]([O-])c1cc(O)cc([N+](=O)[O-])c1
solubility: 21.7 mM (≈ 4000 µg/mL)

O=[N+]([O-])OCCO[N+](=O)[O-]
solubility: 44.7 mM (≈ 6800 µg/mL)
